One substance from publication PMC11969009 (Nature Communications, 2025) can be followed below.

Sequences of proteins named here, by UniProt entry; tags and fusion partners are left off.
UniProt P33261, whole entry: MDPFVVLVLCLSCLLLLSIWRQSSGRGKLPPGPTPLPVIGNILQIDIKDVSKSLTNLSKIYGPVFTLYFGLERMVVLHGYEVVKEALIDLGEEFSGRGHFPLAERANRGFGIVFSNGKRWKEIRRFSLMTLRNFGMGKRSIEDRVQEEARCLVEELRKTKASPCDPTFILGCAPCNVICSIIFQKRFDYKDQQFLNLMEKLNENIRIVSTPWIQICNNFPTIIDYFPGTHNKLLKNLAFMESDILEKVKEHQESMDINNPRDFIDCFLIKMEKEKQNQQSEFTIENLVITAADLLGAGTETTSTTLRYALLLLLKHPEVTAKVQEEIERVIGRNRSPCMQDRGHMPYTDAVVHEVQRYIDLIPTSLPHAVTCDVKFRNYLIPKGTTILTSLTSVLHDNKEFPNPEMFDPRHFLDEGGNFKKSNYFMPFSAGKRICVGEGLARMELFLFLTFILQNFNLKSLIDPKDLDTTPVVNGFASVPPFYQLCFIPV

In this series the target is CYP2C19 (Homo sapiens, UniProt P33261). Particulars: microsomes.

The IC50 is the concentration that gives 50% inhibition. Higher therefore signals lower potency. Take “(S)-(+)-N-3-benzylnirvanol [reference compound]”: the IC50 is 450 nM.
